The list shows a part of the results, in another mix than the full data. The source made the active and inactive calls.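 The calls were made as follows: active = fitted rise in melting shift crosses a set limit at or below the top valid dose tested; inconclusive = flat fit at mid-level activity, or a poor quality fit; inactive = the rest.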

Chains of the proteins cited; added tags and fusions are not shown. Lines headed by an entry give the natural chain unless they say otherwise; changes in a name come on top.
UniProt Q9HCT0: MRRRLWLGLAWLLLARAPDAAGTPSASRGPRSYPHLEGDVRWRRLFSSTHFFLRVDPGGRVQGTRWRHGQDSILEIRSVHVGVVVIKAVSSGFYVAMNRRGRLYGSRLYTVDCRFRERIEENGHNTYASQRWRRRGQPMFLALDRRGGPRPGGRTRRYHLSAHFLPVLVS

The experiment addresses Fibroblast growth factor 22 (Homo sapiens) (UniProt Q9HCT0). Briefly: FGF22 melting temperature shift by ligands – biophysical, thermal shift, cherry-pick retest, FGF22 synaptogenesis inhibitor project, dose response (AID 720646). Conditions: recombinant FGF22 thermal shift, SYPRO orange fluorescence; at 38 µM (top of the series).
In the case of `Nc1ccc(CCCCOc2ccccc2)cc1`, the thermal shift activity is inactive: 0.267%.

Source of the values: PubChem BioAssay AID720646 (Broad Institute, 2013).
